Source: US20250127912A1, “COMPOSITIONS FOR DELIVERY OF POLYNUCLEOTIDES” (miRecule, Inc., priority 2021, published 2025)

Key:
[1] = tested on: luciferase reporter containing miR-30 target sites (UM-SCC-1^luc); assay: Luciferase reporter knockdown assay in UM-SCC-1^luc cells; type: cell-based; conditions: Cetuximab conjugates DAR 1 or 4, +/- PolyR12; 50-12.5 nM (oligo), 5 days; RLU normalized to XTT and Control Oligo conjugate
[2] = Biodistribution of IR750-NCD5 cetuximab conjugates in mice with orthotopic UM-SCC-1^luc tumors; conditions: 5 mg/kg IR750-NCD5 cetuximab conjugate, N/P of 1; 24 and 48 hours

With Cetuximab-miRNA Conjugate the “knockdown of luciferase reporter activity” value [1] was “improves knockdown of a luciferase reporter” and the “delivery to the tumor (IR-750 fluorescence)” value [2] was “improves delivery to tumor”.
